From patent US10202345B2, “Substituted azaspiro(4.5)decane derivatives” (priority 2014, dated 2019)

The chains behind the UniProt entries cited, without tags or fusion partners.
UniProt P35372, whole entry: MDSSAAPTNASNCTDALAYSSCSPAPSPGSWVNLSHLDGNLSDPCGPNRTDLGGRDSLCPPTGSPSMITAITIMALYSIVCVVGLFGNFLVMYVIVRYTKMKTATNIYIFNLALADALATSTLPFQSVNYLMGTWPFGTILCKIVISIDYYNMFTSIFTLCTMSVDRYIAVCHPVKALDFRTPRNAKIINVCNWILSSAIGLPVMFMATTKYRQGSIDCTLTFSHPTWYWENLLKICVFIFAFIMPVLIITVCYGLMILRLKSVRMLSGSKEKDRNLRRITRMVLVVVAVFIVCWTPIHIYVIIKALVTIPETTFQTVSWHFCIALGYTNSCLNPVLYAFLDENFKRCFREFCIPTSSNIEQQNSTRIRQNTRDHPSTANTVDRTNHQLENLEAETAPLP
UniProt P41146, whole entry: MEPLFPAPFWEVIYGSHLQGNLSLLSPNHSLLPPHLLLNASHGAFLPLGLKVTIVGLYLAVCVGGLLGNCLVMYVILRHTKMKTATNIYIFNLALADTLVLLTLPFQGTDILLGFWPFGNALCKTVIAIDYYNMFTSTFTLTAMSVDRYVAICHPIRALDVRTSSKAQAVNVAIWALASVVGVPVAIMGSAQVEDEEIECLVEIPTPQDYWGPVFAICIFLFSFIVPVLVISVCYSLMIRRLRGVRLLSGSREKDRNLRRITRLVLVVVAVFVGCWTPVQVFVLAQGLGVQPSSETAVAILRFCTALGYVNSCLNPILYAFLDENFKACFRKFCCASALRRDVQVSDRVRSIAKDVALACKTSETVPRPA

Experiments:
human μ opiate receptor = human μ opiate receptor (Homo sapiens, UniProt P35372); assay: μ opiate receptor binding assay with [3H]-naloxone (WGA-SPA beads); details: for Ki: read-out: Ki (μ) mean [μm], mean; for % inhibition (μ) [1 μM]: test concentration 1 μM
ORL1 receptor = ORL1 receptor (Homo sapiens, UniProt P41146); assay: ORL1 receptor binding assay with 3H-nociceptin/orphanin FQ (WGA-SPA beads); details: for Ki: read-out: Ki (ORL1) mean, mean; for % inhibition (ORL1) [1 μM]: test concentration 1 μM
rats = assay: Analgesia in the tail flick (focal ray) test in rats, intravenous administration

| SMILES | Ki (human μ opiate receptor) | % inhibition (μ) [1 μM] (human μ opiate receptor) | Ki (ORL1 receptor) | % inhibition (ORL1) [1 μM] (ORL1 receptor) | Tail flick rat, i.v. ED50 rat [μg/kg] (rats) | Tail flick rat, i.v. % MPE (@μg/kg) (rats; @10 μg/kg) |
| --- | --- | --- | --- | --- | --- | --- |
| CN(C)C1(c2cccs2)CCC2(CCN(C(=O)CCC3CCC3)C2)CC1 (stereo not shown) | 0.35 nM | 99.5% | 0.76 nM | 97.5% | – | – |
| CN(C)C1(c2ccccc2)CCC2(CCN(CCCC3CCC3)C2)CC1 (stereo not shown) | 0.72 nM | 98% | 1.27 nM | 97.33% | – | – |
| COC(C)(C)CCC(=O)N1CCC2(CCC(c3ccccc3)(N(C)C)CC2)C1 (stereo not shown) | 0.4 nM | 99.5% | 0.56 nM | 97.5% | 8.03 µg/kg | – |
| COC(C)(C)CCCN1CCC2(CCC(c3ccccc3)(N(C)C)CC2)C1 (stereo not shown) | 0.75 nM | 100% | 1.06 nM | 96% | – | – |
| CN(C)C1(C2CCCC2)CCC2(CC1)CC(=O)N(CC1CCCCC1)C2 (stereo not shown) | 0.8 nM | 99% | 6.4 nM | 91% | – | – |
| COC1(CCN2CC3(CCC(c4cccs4)(N(C)C)CC3)CC2=O)CC1 (stereo not shown) | 0.98 nM | 100.5% | 0.91 nM | 96.5% | 1.45 µg/kg | – |
| COC1(CC(=O)N2CCC3(CCC(c4cccs4)(N(C)C)CC3)C2)CC1 (stereo not shown) | 0.66 nM | 100.5% | 0.37 nM | 93.5% | – | – |
| CCC(O)(CC)CCN1CCC2(CCC(c3cccs3)(N(C)C)CC2)C1 (stereo not shown) | 0.72 nM | 101.5% | 0.34 nM | 98% | – | – |
| COC1(CCC(=O)N2CCC3(CCC(c4cccs4)(N(C)C)CC3)C2)CCC1 (stereo not shown) | 0.25 nM | 100% | 0.47 nM | 98.5% | – | – |
| CN(C)C1(c2ccccc2)CCC2(CCN(CCC3CCC3)C2)CC1 (stereo not shown) | 0.44 nM | 97.5% | 0.7 nM | 96% | – | – |
| CN(C)C1(c2ccccc2)CCC2(CCN(C(=O)CCC3(C#N)CCC3)C2)CC1 (stereo not shown) | 0.83 nM | 98.5% | 0.86 nM | 94.5% | – | – |
| COC1(CCC(=O)N2CCC3(CCC(c4ccccc4)(N(C)C)CC3)C2)CCC1 (stereo not shown) | 0.44 nM | 100.5% | 0.52 nM | 99% | – | – |
| CN(C)C1(c2cccs2)CCC2(CCN(CCC3(C#N)CC3)C2)CC1 (stereo not shown) | 0.73 nM | 99.5% | 5.3 nM | 95.5% | – | – |
| COC1(CCN2CC3(CCC(c4ccccc4)(N(C)C)CC3)CC2=O)CC1 (stereo not shown) | 0.67 nM | 100% | 0.77 nM | 97% | – | – |
| COC(C)(C)CC(=O)N1CCC2(CCC(c3cccs3)(N(C)C)CC2)C1 (stereo not shown) | 0.73 nM | 100% | 1.1 nM | 94% | – | – |
| CN(C)C1(c2cccs2)CCC2(CCN(CCC3CCC3)C2)CC1 (stereo not shown) | 0.6 nM | 101.5% | 0.52 nM | 98% | 52.8 µg/kg | – |
| CC(C)CCN1CC2(CCC(c3cccs3)(N(C)C)CC2)CC1=O (stereo not shown) | 0.43 nM | 97.5% | 0.53 nM | 93.5% | – | – |
| COC1(CCC(=O)N2CCC3(CCC(c4ccccc4)(N(C)C)CC3)C2)CC1 (stereo not shown) | 0.44 nM | 101.5% | 0.34 nM | 99.5% | – | – |
| COC1(CCC(=O)N2CCC3(CCC(c4cccs4)(N(C)C)CC3)C2)CC1 (stereo not shown) | 0.44 nM | 102.5% | 0.51 nM | – | – | – |
| CN(C)C1(c2ccccc2)CCC2(CCN(C(=O)CCC3CC3)C2)CC1 (stereo not shown) | 0.48 nM | 99.5% | 0.46 nM | 95.5% | – | – |
| CN(C)C1(c2cccs2)CCC2(CCN(C(=O)CCC(C)(C)C#N)C2)CC1 (stereo not shown) | 0.56 nM | 101% | 1.7 nM | 96.5% | – | – |

| SMILES | Ki (human μ opiate receptor) | % inhibition (μ) [1 μM] (human μ opiate receptor) | Ki (ORL1 receptor) | % inhibition (ORL1) [1 μM] (ORL1 receptor) | Tail flick rat, i.v. ED50 rat [μg/kg] (rats) | Tail flick rat, i.v. % MPE (@μg/kg) (rats; @10 μg/kg) |
| --- | --- | --- | --- | --- | --- | --- |
| COC1(CCN2CC3(CCC(c4ccc(F)s4)(N(C)C)CC3)CC2=O)CC1 (stereo not shown) | 0.31 nM | 99.5% | 1.29 nM | 95.5% | – | – |
| CC(C)CCC(=O)N1CCC2(CCC(c3ccccc3)(N(C)C)CC2)C1 (stereo not shown) | 0.36 nM | 100% | 0.3 nM | 98.5% | – | – |
| CN(C)C1(c2cccs2)CCC2(CCN(C(=O)CCC3CC3)C2)CC1 (stereo not shown) | 0.52 nM | 99% | 0.72 nM | 98% | – | – |
| COC1(CC(=O)N2CCC3(CCC(c4ccccc4)(N(C)C)CC3)C2)CCC1 (stereo not shown) | 0.55 nM | 99.5% | 0.58 nM | 97.5% | – | 100%@10 % MPE |
| COC(C)(C)CCN1CC2(CCC(c3ccc(Cl)s3)(N(C)C)CC2)CC1=O (stereo not shown) | 0.41 nM | 101.5% | 2.1 nM | 91% | – | – |
| COC1(CC(=O)N2CCC3(CCC(c4ccccc4)(N(C)C)CC3)C2)CC1 (stereo not shown) | 0.57 nM | 100.5% | 0.38 nM | 96% | – | – |
| CC(C)CCN1CC2(CCC(c3ccccc3)(N(C)C)CC2)CC1=O (stereo not shown) | 0.5 nM | 99% | 1.99 nM | 93% | – | – |
| COC1(CCN2CCC3(CCC(c4cccs4)(N(C)C)CC3)C2)CCC1 (stereo not shown) | 0.82 nM | 103% | 0.95 nM | 98% | – | – |
| CN(C)C1(C2CCCC2)CCC2(CCN(C(=O)CC3CCC3)C2)CC1 (stereo not shown) | 0.69 nM | 99.5% | 6.25 nM | 90% | – | – |
| COC1(CC(=O)N2CCC3(CCC(c4cccs4)(N(C)C)CC3)C2)CCC1 (stereo not shown) | 0.44 nM | 100.5% | 0.47 nM | 98.5% | 1.44 µg/kg | – |
| CN(C)C1(c2cccs2)CCC2(CCN(C(=O)CCC3(C#N)CCC3)C2)CC1 (stereo not shown) | 0.37 nM | 101% | 0.86 nM | 95.5% | – | – |
| CN(C)C1(c2cccs2)CCC2(CCN(C(=O)CC3CCC3)C2)CC1 (stereo not shown) | 0.37 nM | 99.5% | 0.24 nM | 97.5% | – | – |
| CN(C)C1(c2cccs2)CCC2(CCN(C(=O)CC3(C#N)CCC3)C2)CC1 (stereo not shown) | 0.39 nM | 100.5% | 0.73 nM | 97.5% | – | – |
| CN(C)C1(c2ccccc2)CCC2(CCN(C(=O)CCC3CCC3)C2)CC1 (stereo not shown) | 0.53 nM | 99.5% | 0.5 nM | 93.5% | – | – |
| CN(C)C1(c2cccs2)CCC2(CCN(CCC3CCCO3)C2)CC1 (stereo not shown) | 0.57 nM | 96.5% | 1.14 nM | 97% | – | – |
| CC(C)CCC(=O)N1CCC2(CCC(c3cccs3)(N(C)C)CC2)C1 (stereo not shown) | 0.4 nM | 100% | 0.44 nM | 93.5% | – | – |
| CN(C)C1(c2ccccc2)CCC2(CCN(C(=O)CCC(C)(C)C#N)C2)CC1 (stereo not shown) | 0.94 nM | 100% | 1.5 nM | 98% | – | – |
| CN(C)C1(c2cccs2)CCC2(CC1)CC(=O)N(CC1(C#N)CCC1)C2 (stereo not shown) | 0.98 nM | 100% | 0.46 nM | 98.5% | – | – |
| CN(C)C1(c2cccs2)CCC2(CCN(CCC3(C#N)CCC3)C2)CC1 (stereo not shown) | 0.67 nM | 100% | 2.05 nM | 96% | – | – |
| COC1(CCN2CCC3(CCC(c4ccccc4)(N(C)C)CC3)C2)CCC1 (stereo not shown) | 0.69 nM | 103.5% | 0.83 nM | 98% | – | – |
| COC(C)(C)CCC(=O)N1CCC2(CCC(c3cccs3)(N(C)C)CC2)C1 (stereo not shown) | 0.62 nM | 99.5% | 1.16 nM | 97% | – | – |
